Experimental data as given in US7947736B2, “Oligomeric compounds” (BTG International Limited, priority 2004, dated 2011).

Test: Ketogenic activity after oral administration: plasma β-hydroxybutyrate in rats (Ranbut assay)
Settings: 300 mg/kg po

With “1-3 butandiol, di-(tri(R)-3-hydroxybutyrate)ester [KTX 0203]” the “oral bioavailability” value was “orally bioavailable”, the “time at which the maximum increase of plasma β-hydroxybutyrate was observed” value was 30 min and the “time by which plasma β-hydroxybutyrate returned to control values” was ≤ 2 h.
